Assay results taken from patent publication US20230203052A1, “ACYCLIC CUCURBITURILS, METHODS OF MAKING SAME, AND USES THEREOF” (University of Maryland, College Park, priority 2020, published 2023).
“And” between values parts separate entries of the source, which are not always exact repeats. Identical values can stand only once.

How the values were obtained:
[1] = ITC binding of guests to host 1 (direct or competitive titration); details: for Ka of host·guest complex of 1: pH 7.4
[2] = test system: male Swiss Webster (CFW) mice; details: mouse, in vivo

Compound	Ka of host·guest complex of 1 [1]	further results
CC(=O)Oc1ccc2c3c1O[C@H]1[C@@H](OC(C)=O)C=C[C@H]4[C@@H](C2)N(C)CC[C@@]341 [Heroin]	8.20 × 10^5; −14.5 M^−1	–
Cl.Cl.NCc1ccc(CN)cc1 [guest 11a]	9.71×10^8 M^−1 and 9.71 × 10^8; −9.69 ± 0.014^b) M^−1	–
NCCCCN [guest 5]	1.68×10^6 M^−1 and 1.68 × 10^6; −6.76 ± 0.020^a) M^−1	–
C[N+](C)(C)CCCCCCCCCC[N+](C)(C)C [guest 10d]	5.43×10^8 M^−1 and 5.43 × 10^8; −10.3 ± 0.088^c) M^−1	–
CCCCCC[N+](C)(C)C [guest 6Q]	7.57×10^6 M^−1 and 7.57 × 10^6; −9.68 ± 0.063^a) M^−1	Host 1 binds guest weaker than quaternary diammonium 6d [1]: 890 fold
C=CCN1CC[C@]23c4c5ccc(O)c4O[C@H]2C(=O)CC[C@@]3(O)[C@H]1C5 [guest 18]	4.85×10^6 M^−1 and 4.85 × 10^6; −5.90 ± 0.205^a) M^−1	–
CCOC(=O)C1(c2ccccc2)CCN(C)CC1 [Meperidine]	9.09 × 10^3; −9.08 M^−1	–
C=CC[N+]1([C@H]2C[C@H]3[C@@H]4CC[C@H]5C[C@H](O)[C@@H](N6CCOCC6)C[C@]5(C)[C@H]4CC[C@]3(C)[C@H]2OC(C)=O)CCCC1 [guest 19, rocuronium]	6.29×10^8 M^−1 and 6.29 × 10^8; −12.9 ± 0.056^b) M^−1	Binding of 1 to guest stronger than M1 [1]: 75 fold
C[N+](C)(C)C12CC3CC(CC(C3)C1)C2.[I-] [guest 12d]	6.66×10^6 M^−1 and 6.66 × 10^6; −7.36 ± 0.030^d) M^−1	–
CN1CC[C@]23c4c5ccc(O)c4O[C@H]2[C@@H](O)C=C[C@H]3[C@H]1C5 [guest 17, morphine]	7.69×10^5 M^−1 and 7.69 × 10^5; −8.03 ± 0.07^a) M^−1	Binding of host 1 compared with M1 (in words) [1]: somewhat tighter
NCCCCCCN [guest 6a]	3.70×10^8 M^−1 and 3.70 × 10^8; −8.60 ± 0.021^b) M^−1	–
C[C@]12N3Cc4c(OS(=O)(=O)[O-])ccc(OS(=O)(=O)[O-])c4CN1C(=O)N1CN4C(=O)N5CN6C(=O)N7CN8C(=O)N9Cc%10c(OS(=O)(=O)[O-])ccc(OS(=O)(=O)[O-])c%10CN%10C(=O)N(CN%11C(=O)N(CN%12C(=O)N(CN(C3=O)[C@]12C)[C@@H]4[C@H]%125)[C@@H]6[C@H]%117)[C@]8(C)[C@@]9%10C.[Na+].[Na+].[Na+].[Na+] [host 1]	–	Locomotion counts, 5-minute reversal (methamphetamine then Motor0 5 minutes later) [2]: significant decrease in locomotion; Locomotion counts, 30s Blocking (Motor0 then methamphetamine 30 s later) [2]: effectively reduce the locomotion levels to that observed for D5W alone; Locomotion counts, 30 s Reversal (methamphetamine then Motor0 30 s later) [2]: significantly lower than Meth alone; Locomotion counts, Motor0 only [2]: does not significantly change the locomotion levels; Locomotion counts, Premix of Motor0 and methamphetamine [2]: effectively reduce the locomotion levels to that observed for D5W alone
CNC(C)C(=O)c1ccc(C)cc1 (stereo not drawn) [Mephedrone]	1.24 × 10^6; −16.4 M^−1	–
CNC(C)Cc1ccc2c(c1)OCO2 (stereo not drawn) [MDMA]	2.54 × 10^6; −17.8 M^−1	–
CN(C)CCCCCCN(C)C [guest 6c]	5.74×10^8 M^−1 and 5.74 × 10^8; −10.5 ± 0.028^c) M^−1	–
COc1ccc2c3c1O[C@H]1C(=O)CC[C@@]4(O)[C@@H](C2)N(C)CC[C@]314 [Oxycodone]	3.24 × 10^6; −19.4 M^−1	–
CC(=O)O[C@H]1C[C@@H]2CC[C@@H]3[C@H](CC[C@@]4(C)[C@H]3C[C@H]([N+]3(C)CCCCC3)[C@@H]4OC(C)=O)[C@@]2(C)C[C@@H]1N1CCCCC1 [guest 20, vecuronium]	1.00×10^9 M^−1 and 1.00 × 10^9; −9.62 ± 0.036^c) M^−1	Binding of 1 to guest stronger than M1 [1]: 172 fold
C[N+](C)(C)Cc1ccc(C[N+](C)(C)C)cc1.[Cl-].[Cl-] [guest 11d]	1.05×10^9 M^−1 and 1.05 × 10^9; −12.0 ± 0.030^b) M^−1	–
CNCCCCCCNC [guest 6b]	5.26×10^8 M^−1 and 5.26 × 10^8; −9.82 ± 0.038^c) M^−1	–
CNC1(c2ccccc2Cl)CCCCC1=O (stereo not drawn) [Ketamine]	8.13 × 10^3; −12.1 M^−1	–
COc1ccc2c3c1O[C@H]1C(=O)CC[C@H]4[C@@H](C2)N(C)CC[C@]314 [Hydrocodone]	2.88 × 10^6; −18.5 M^−1	–
C[N+](C)(C)CCCCCC[N+](C)(C)C.[Cl-].[Cl-] [guest 6d]	6.79×10^9 M^−1 and 6.71×10^9 M^−1 and 6.71 × 10^9; −12.1 ± 0.042^c) M^−1	Binding of 1 to guest stronger than M1 [1]: 75 fold; Host 1 preference for guest over primary-tertiary ammonium ions 6a-6c [1]: ≈ 10 fold
c1ccc(C2(N3CCCCC3)CCCCC2)cc1 [guest 16, PCP]	1.89×10^5 M^−1 and 1.89 × 10^5; −6.18 ± 0.069^a) M^−1	Binding of host 1 compared with M1 (in words) [1]: somewhat tighter
Cl.Cl.NC1CCC(N)CC1 (stereo not drawn) [guest 13a]	3.41×10^6 M^−1 and 3.41 × 10^6; −2.92 ± 0.019^a) M^−1	–
Cl.NC12CC3CC(CC(C3)C1)C2 [guest 12a]	9.90×10^5 M^−1 and 9.90 × 10^5; −4.45 ± 0.021^a) M^−1	–
